# Laboratory results from PubChem BioAssay AID588436 (Broad Institute, 2011).
# This is a selection; strong and weak results do not stand in their true shares. Active and inactive are the calls of the source. No stated cut-off is given here; in the data, active means activation mostly above about 9.7% (no sharp cut-off); inconclusive means no clear call, values can overlap the other calls; inactive means mostly below about 3.7%.
# Experiment: induces V. cholerae light production without autoinducers, primary screen, BH1578 luxS cqsA deficient, single point (AID 588436)
# Conditions: V. cholerae BH1578 lux reporter, luminescence, 6 h; at 18.7 µM; stronger effect = higher value
row,SMILES,activation
1,NC(=O)Nc1ccc([As](=O)(O)O)cc1,inactive: -0.32%
